## Yeast mating assay B: variants of the scFv Ab-14

The target is the same throughout: PDVDLGDISGINAS, from the HR2 region of SARS-CoV-2 spike.

Ab-14 is the parent antibody, in scFv form: VH, then the linker GGGGSGGGGSGGGGS, then VL. The heavy chain is unchanged in all variants.
VH: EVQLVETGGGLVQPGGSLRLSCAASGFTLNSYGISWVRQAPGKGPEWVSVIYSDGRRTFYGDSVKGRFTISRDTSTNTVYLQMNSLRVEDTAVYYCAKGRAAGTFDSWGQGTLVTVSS
VL: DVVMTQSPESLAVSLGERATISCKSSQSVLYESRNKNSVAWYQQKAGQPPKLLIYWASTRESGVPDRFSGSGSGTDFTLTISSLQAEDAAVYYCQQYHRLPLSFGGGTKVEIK

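The parent was found by panning a naive human phage display library on the peptide. The variants were designed computationally from a first round of random CDR variants and then made and measured. Group labels follow the data file (Ctrl: baseline library sampled from a position-specific scoring matrix, with some repeated check sequences; En: ensemble of fine-tuned language models; GP: Gaussian process model; HC: hill climbing; Gen: genetic algorithm; Gibbs: Gibbs sampling; a sequence that several methods proposed may carry one label only). The assay is AlphaSeq: two haploid yeast populations carry antibody and antigen on their surface. After mating in shaken culture at 30 °C for 16 h, diploids were selected and their barcode pairs sequenced. A regression on co-assayed BCL2-family reference pairs converts the normalised counts of each replicate to an apparent Kd. Mating was done six times.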

Variants are written as CDR1, CDR2 and CDR3 of the light chain (limits as in the source). Parent: KSSQSVLYESRNKNSVA, WASTRES, QQYHRLPLS. This list holds designs with more than six substitutions. Kd is apparent (estimated from mating counts) and averaged on the log scale over replicates with a signal. Smaller is tighter. A pair that was not seen in any replicate is written "not detected"; this usually means weak binding, but a binder can also be missed.

| CDR-L1 | CDR-L2 | CDR-L3 | group | Kd (apparent) | detected |
|---|---|---|---|---|---|
| KLWQDMYNGRNQANAVA | EGNILAN | QQYARLPFL | En_Gibbs | 2.4 nM | 6/6 |
| KLAMITGLEKVSGNNVA | EMETRER | QQYNRLPLA | En_Gen | 5.5 nM | 6/6 |
| KLSMYTGHMSVSKNNVA | EMETRMN | QQYDRLPLS | En_Gen | 6.9 nM | 6/6 |
| TISQSWNMTSRGKNSVA | QAEMREK | QQYDRLPLS | En_HC | 9.4 nM | 6/6 |
| KLYYNTGTESFRKDNIA | DNDLREE | QQYDRLPLS | En_Gen | 22 nM | 6/6 |
| MMSQVTALGQRHRNNVA | QTSMREN | QQYDRLPLI | En_Gen | 5.8 nM | 6/6 |
| KLDQKIRVNGMACYNVA | DSNNRLD | QQYHRLPLI | En_Gibbs | 3.7 nM | 6/6 |
| QFSNTNMQGHAMWHNVA | EATYAEE | QQYARLPLQ | En_Gibbs | 24 nM | 6/6 |
| FFALDQDSMGDAKNSIA | DRNTKAH | QQYSRLPLV | En_Gibbs | 820 pM | 6/6 |
| IITQSVMQESKNKRNVA | NTSEREP | QQYDRLPLI | En_HC | 55 nM | 6/6 |
| MVNGLTDHLSKNTNSVA | ETETREE | QQYERLPLS | En_Gen | 1.9 nM | 6/6 |
| MFSQLTYMGTRARNAVA | QAETRVN | QQYHHLPLI | En_HC | 79 nM | 6/6 |
| KISGSVMMLQRNKNSVA | DANTRES | QQYHRLPLS | GP_Gibbs | 540 pM | 6/6 |
| KLDQSVLGESRNKNSVA | HANQRES | QQYHRLPLY | GP_Gibbs | 700 pM | 6/6 |
| KLSISVVYGSLNKNSVA | WASTREP | QQPHRLPLS | Ctrl | not detected | 0/6 |
| HLTMFSQGQGLMKNAIA | EDSEVAT | QQYVQLPLV | En_Gibbs | 43 nM | 5/6 |
| VLSGITNQAMSKHNSVA | NVTMRPD | QQYHRLPLS | En_Gen | 6.9 nM | 6/6 |
| KLYVTTMLESHNKNSIA | DLSTRGN | QQYHRLPLS | En_HC | 1.9 nM | 6/6 |
| KLSTSVLYESRMCNAVA | AASTREE | QQYHRLPLS | GP_Gibbs | 850 pM | 6/6 |
| KVSMSDQYEARNKNSVA | EASTRED | QQYHRLPLS | GP_Gibbs | 2.9 nM | 6/6 |
| KVSSFMRGLMMRTDSIA | DNETRNN | QQYDRLPLS | En_Gen | 8.1 nM | 6/6 |
| HITSNMFGTGGVTSNVA | ETNTLMV | QQYSKLPLM | En_Gibbs | 1.6 nM | 6/6 |
| TISQMTYWESRNKNSVA | QTSTREE | QDYDRLPLS | En_HC | 30 nM | 6/6 |
| HLHTVNYTQAIGTNAIA | DATLSVT | QQYFRLPIM | En_Gibbs | 16 nM | 6/6 |
| NFPQEVMYESHFKNNVA | QTSTRES | QQYDHLPLS | En_HC | 1.1 nM | 6/6 |
| KISMLSENELKNRNSVA | ELVTRVN | QQYNRLPLS | En_Gen | 2.1 nM | 6/6 |
| SISGFMKSLSAHINSVA | DMTNRED | QQYDKLPLS | En_Gen | 8.3 nM | 6/6 |
| KISYMGEWFSTNHSAIA | QASTREQ | QQYHRLPLS | En_HC | 4.3 nM | 6/6 |
| QLSQAYRVGENWKESIA | HGSVRVE | QCYVRLPLS | En_Gibbs | 2.7 nM | 6/6 |
| QLDQAYRVGDLWTQSIA | HGSMRVQ | QCYERLPLS | En_Gibbs | 260 nM | 6/6 |
| KVFPSELGEERNKMSVA | QASTRES | QQYHRLPLS | GP_Gibbs | 29 nM | 6/6 |
| KCAQGWLYESRNKNSVA | NASQREH | QQYHRLPLS | GP_Gibbs | 750 pM | 6/6 |
| KLFQSWLYEQRNPNSVA | NASKRLL | QQYHRLPLS | GP_Gibbs | 1.6 nM | 6/6 |
| KIGMVTNGISRSKNSVA | EQSTRED | QQYNRLPLS | En_HC | 760 pM | 6/6 |
| FLEQSELYESRMKNSVA | NASTRCS | QQYHRLPLS | GP_Gibbs | 9.0 nM | 6/6 |
| KLSQSWLYLSRNMNAVA | NASQRLS | QQYHRLPLS | GP_Gibbs | 1.3 nM | 6/6 |
| HLSTSVDLESVHKNSIA | DLMTRES | QQYHRLPLS | En_HC | 890 pM | 6/6 |
| KVSQSWQYGSRNKQSVA | HASQRES | QQYHRLPLS | GP_Gibbs | 3.0 nM | 6/6 |
| HISQMVMYGSCQKNNVA | QVSLREE | QQYHRLPLS | En_HC | 7.9 nM | 6/6 |
| AFSGSHLYESRNQNSVA | EASTRCD | QQYHRLPLS | GP_Gibbs | 930 pM | 6/6 |
| IISQSVLGGYHNRNSVA | QTSERGQ | QQYDRLPLS | En_HC | 3.3 nM | 6/6 |
| KISFQYRYEQLAKNNIA | EVVTRLK | QQYHRLPLS | En_HC | 21 nM | 6/6 |
| KISGYLNKESKAKNSVA | EMVNRES | QQYDRLPLS | En_HC | 4.6 nM | 5/6 |
| KLTISIRGEGSEVQSVA | GAENLRQ | QHYNQLPLS | En_Gibbs | not detected | 0/6 |
| QIYQAMHTLMQNKDNVA | DVTNRTK | QQYFRLPLS | En_Gen | 1.7 nM | 6/6 |
| TISESWMYESRNKNNVA | EESTKCD | QSYFRLPLS | En_HC | 43 nM | 5/6 |
| MISDLTMYGSHNKNSVA | DLSTRGS | QQYHRLPLS | En_HC | 1.7 nM | 6/6 |
| TIGGTLMFGMRNRSNVA | EVSERLK | QQYDRLPLI | En_Gen | 66 nM | 6/6 |
| MISQVMNTLTRHGNNVA | DLDERED | QQYFRLPLS | En_Gen | 7.0 nM | 6/6 |
| KVSISEPYEERNKNSVA | NASVRMS | QQYHRLPLS | GP_Gibbs | 940 pM | 6/6 |
| GFSDSITEQIADANSIA | DRDERDV | QQYSRLPLI | En_Gibbs | 42 nM | 6/6 |
| KSSQQVLYEDKQVNSVA | NASQRES | QQYHRLPLS | GP_Gibbs | 1.5 nM | 6/6 |
| MLSEVLHMLGVQKNSIA | DLVLRAN | QQYHRLPLM | En_Gen | 16 nM | 4/6 |
| TLGAATLEESRNKNSVA | EMSLREN | QSYNRLPLS | En_HC | 7.4 nM | 6/6 |
| QLDQAYRVGELWKYSIA | HGSMRVQ | QCYVRLPLS | En_Gibbs | not detected | 0/6 |
| MISQLFNMGSFAINSVA | QASQRCE | QQYDRLPLI | En_Gen | 140 nM | 4/6 |
| KFMISLEYQMAEQNAIA | HAEISTV | QQYSRLPIY | En_Gibbs | not detected | 0/6 |
| KLYFNVGTMSHNKQNIA | DMERRED | QQYHRLPLS | En_HC | 840 pM | 6/6 |
| KITATMRFEQKNSNNIA | EVSTRSK | QQYYRLPIS | En_Gen | 4.9 nM | 6/6 |
| TIGQMFNGELRNRNSVA | QASTRES | QSYDRLPLS | En_HC | 3.7 nM | 6/6 |
| MISQIYNMGSFAINSVA | QASLRND | QQYDRLPLM | En_Gen | 35 nM | 6/6 |
| MLSQMWGVGSKAKNSVA | QASMRFN | QQYDRLPLI | En_Gen | 370 nM | 5/6 |
| QISMLLNFESYKIENVA | QMSTRVN | QQYDRLPLS | En_Gen | 4.6 nM | 5/6 |
| KLYDEATSRVQTAENIA | EKTESLQ | QQYHRLPLS | En_Gibbs | 120 nM | 6/6 |
| MISQLFMYGTRNYNSIA | QAETREK | QQYDRLPLE | En_HC | 8.4 nM | 6/6 |
| SIDEYQWYHEAVNQNIA | DAEAVRP | QQYFMLPLS | En_Gibbs | 21 nM | 6/6 |
| ALQDVTRMESNKKNSIA | DMSTRES | QQYHRLPLS | En_HC | 160 nM | 6/6 |
| SVHFYGTTGEQNRESIA | ENSIRVE | QQYSHLPLL | En_Gibbs | 59 nM | 6/6 |
| NVRDSLGYEQNVGSAVA | EASQVED | QQYYTLPLT | En_Gibbs | 36 nM | 6/6 |
| ALASTGHQVDSQMQNIA | DGMERES | QQYNRLPLT | En_Gibbs | 1.2 nM | 6/6 |
| KLSWSVGYESRNPNNVA | NASTREL | QQYHRLPLS | GP_Gibbs | 590 pM | 6/6 |
| KVDQEWDYGSRNKNSVA | NASQRER | QQYHRLPLS | GP_Gibbs | 660 pM | 6/6 |
| HLKDMPGQGPQTYSSIA | HAEIREP | QQYYRLPLM | En_Gibbs | 7.7 nM | 6/6 |
| KLRQQTLYETRNANSVA | SASTREE | QQYHRLPLS | GP_HC | 1.7 nM | 6/6 |
| HISPSFMVESKLKNSVA | QTETRVP | QQYDRLPLS | En_HC | 3.5 nM | 6/6 |
| HMSMLTLQGMRHRNSVA | QMTTREN | QQYDRLPLA | En_Gen | 110 nM | 6/6 |
| KLSQYVGGESRNKSALA | DNSTRES | QQYHRLPLS | En_HC | 15 nM | 6/6 |

7 of these entries, quoted again:

| CDR-L1 | CDR-L2 | CDR-L3 | group | Kd (apparent) | detected |
|---|---|---|---|---|---|
| KITATMRFEQKNSNNIA | EVSTRSK | QQYYRLPIS | En_Gen | 4.9 nM | 6/6 |
| HITSNMFGTGGVTSNVA | ETNTLMV | QQYSKLPLM | En_Gibbs | 1.6 nM | 6/6 |
| QLDQAYRVGELWKYSIA | HGSMRVQ | QCYVRLPLS | En_Gibbs | not detected | 0/6 |
| KLSTSVLYESRMCNAVA | AASTREE | QQYHRLPLS | GP_Gibbs | 850 pM | 6/6 |
| TLGAATLEESRNKNSVA | EMSLREN | QSYNRLPLS | En_HC | 7.4 nM | 6/6 |
| MISQLFMYGTRNYNSIA | QAETREK | QQYDRLPLE | En_HC | 8.4 nM | 6/6 |
| MLSEVLHMLGVQKNSIA | DLVLRAN | QQYHRLPLM | En_Gen | 16 nM | 4/6 |

The parent sequence was in this pool as ten entries: three were never detected, three once, and four in most replicates, with averages from 2.2 nM to 240 nM. Nonspecific signal, from three strains lacking the peptide, appeared in 4% of pairings of all light chain designs, centred on 430 nM (5% of these signals below 38 nM); values are not corrected for it. The authors' rule: three or more of the six replicates give a measured affinity, fewer mean a poor binder. A sequence measured in both rounds can read differently, since the two assays cover different ranges.

Reference: Li et al. 2023, doi:10.1038/s41467-023-39022-2. File: FLAb, binding data.